Each structure is given as a SMILES string. Read-outs that look alike come from different tables or passages of the source. Some results are limits rather than exact numbers.

By UniProt entry, the sequences of proteins in these tests, tags left out. Residues count along the entry.
UniProt P08253, 110-660 limits assumed: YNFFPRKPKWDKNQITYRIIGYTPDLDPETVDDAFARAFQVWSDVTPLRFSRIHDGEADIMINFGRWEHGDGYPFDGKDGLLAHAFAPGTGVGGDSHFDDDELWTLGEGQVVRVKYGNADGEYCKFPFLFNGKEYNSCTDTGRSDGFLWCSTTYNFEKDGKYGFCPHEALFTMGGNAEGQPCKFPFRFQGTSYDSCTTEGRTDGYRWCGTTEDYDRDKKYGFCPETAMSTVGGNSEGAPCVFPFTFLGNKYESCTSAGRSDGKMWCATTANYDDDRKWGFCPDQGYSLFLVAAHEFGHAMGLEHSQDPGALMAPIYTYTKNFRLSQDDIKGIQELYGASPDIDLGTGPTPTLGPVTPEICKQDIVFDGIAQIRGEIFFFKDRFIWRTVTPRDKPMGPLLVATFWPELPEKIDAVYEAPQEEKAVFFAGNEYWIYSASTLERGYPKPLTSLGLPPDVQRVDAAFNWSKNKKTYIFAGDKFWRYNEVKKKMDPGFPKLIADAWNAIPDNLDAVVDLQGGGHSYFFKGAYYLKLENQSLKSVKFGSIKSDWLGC
UniProt P03956, 100-469 limits assumed: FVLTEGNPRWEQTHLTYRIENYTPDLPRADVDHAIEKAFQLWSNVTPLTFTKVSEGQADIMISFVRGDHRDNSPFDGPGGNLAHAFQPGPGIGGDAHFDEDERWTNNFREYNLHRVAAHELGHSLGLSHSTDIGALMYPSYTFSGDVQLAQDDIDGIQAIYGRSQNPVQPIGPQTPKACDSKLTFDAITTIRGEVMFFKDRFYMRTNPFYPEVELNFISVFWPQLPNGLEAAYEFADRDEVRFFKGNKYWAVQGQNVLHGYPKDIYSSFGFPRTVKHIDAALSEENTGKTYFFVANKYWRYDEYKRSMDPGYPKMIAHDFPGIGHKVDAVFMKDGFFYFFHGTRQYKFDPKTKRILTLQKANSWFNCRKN

Our source for the IC50 values is patent US6750228B1, “Aromatic sulfone hydroxamic acid metalloprotease inhibitor” (priority 1997, dated 2004).

The target of one test is MMP-2 (Homo sapiens, UniProt P08253). Conditions: read-out: MMP-2 IC50, recombinant human MMP-2, MCA peptide substrate 4 μM, pH 7.5, room temperature.
For another test, the target named is MMP-1 (Homo sapiens, UniProt P03956). Conditions: read-out: MMP-1 IC50, recombinant human MMP-1, MCA peptide substrate 4 μM, pH 7.5, room temperature.
Another test deals with MMP-13 (Homo sapiens, UniProt P45452). Conditions: read-out: MMP-13 IC50, recombinant human MMP-13, MCA peptide substrate 4 μM, pH 7.5, room temperature.

By IC50 is commonly meant the concentration that inhibits the measured activity by half. As for `O=C(NO)C1(S(=O)(=O)c2ccc(N3CCC(OCc4ccc(C(F)(F)F)cc4)CC3)cc2)CCN(C2CC2)CC1`, the IC50 is 330 nM at MMP-2 (no asterisk, tested form: TFA); > 10000 nM on MMP-1 (tested form: TFA); 4.8 nM at MMP-13 (tested form: TFA).
In the case of `COc1ccc(N2CCN(c3ccc(S(=O)(=O)C4(C(=O)NO)CCN(C5CC5)CC4)cc3)CC2)cc1` [Example 368], the IC50 on MMP-13 (tested form: 2HCl) came to 0.5 nM.
With `O=C(NO)C1(S(=O)(=O)c2ccc(Oc3ccc(OC(F)(F)F)cc3)cc2)CCN(S(=O)(=O)c2ccccc2OC(F)(F)F)CC1`, the IC50 at MMP-2 (no asterisk) was 0.15 nM; on MMP-1, > 10000 nM; on MMP-13 it was 3.5 nM.
Turning to `CC(C)OCCCNc1ccc(S(=O)(=O)C2(C(=O)NO)CCOCC2)cc1`, the IC50 on MMP-13 stood at 290 nM.
Consider `O=C(Nc1cccc(Cl)c1)N1CCC(C(=O)NO)(S(=O)(=O)c2ccc(Oc3ccc(OC(F)(F)F)cc3)cc2)CC1`, for which the results for the IC50 at MMP-2 (no asterisk), at MMP-1 and on MMP-13 were < 0.1 nM, > 10000 nM and 2.7 nM, respectively.
With `O=C(NO)C1(S(=O)(=O)c2ccc(N3CCCNCC3)cc2)CCOCC1`, the IC50 is 3700 nM on MMP-2 (tested form: TFA), > 10000 nM on MMP-1 (tested form: TFA) and 4200 nM at MMP-13 (tested form: TFA).
In the case of `CCCCOCCCNc1ccc(S(=O)(=O)C2(C(=O)NO)CCOCC2)cc1`, the IC50 at MMP-13 amounted to 25.4 nM.
